This note sets out measurements from patent publication US8278319B2, “Substituted spiroamine compounds” (Gruenenthal GmbH, priority 2008, dated 2012).

By UniProt entry, the sequences of proteins in these tests, tags left out.
UniProt P35372, whole entry, looked up: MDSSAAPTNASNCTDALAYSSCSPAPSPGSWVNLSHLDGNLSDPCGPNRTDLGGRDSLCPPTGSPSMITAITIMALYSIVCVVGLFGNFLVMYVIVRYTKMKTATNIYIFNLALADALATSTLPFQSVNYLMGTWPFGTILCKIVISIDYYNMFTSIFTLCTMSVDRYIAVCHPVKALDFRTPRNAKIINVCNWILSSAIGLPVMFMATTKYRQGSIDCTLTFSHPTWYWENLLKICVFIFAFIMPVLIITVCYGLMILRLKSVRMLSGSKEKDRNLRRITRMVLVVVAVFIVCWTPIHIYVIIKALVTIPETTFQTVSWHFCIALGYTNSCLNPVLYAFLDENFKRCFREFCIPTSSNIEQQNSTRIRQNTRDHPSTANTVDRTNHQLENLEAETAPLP

For the experiment, the target named is human μ-opiate receptor (Homo sapiens, UniProt P35372). Description: Affinity to the human μ-opiate receptor, [3H] naloxone displacement (SPA). The note with it: test substance 1 μM; inhibition of specific binding of [3H] naloxone; CHO-K1 membrane preparation.

On to `COc1cc(C)c(S(=O)(=O)N2CCCCC2COCC(=O)N2CCC3(CC2)CCC(c2cccs2)(N(C)C)CC3)c(C)c1` (stereo not drawn) [CC-11, 1-(3-Dimethylamino-3-thiophen-2-yl-9-azaspiro[5.5]undecan-9-yl)-2-[[1-[(4-rnethoxy-2,6-dimethyl-phenyl)sulfonyl]-piperidin-2-yl]-methoxy]-ethanone], for which the “μ-Opioid receptor [1 μM] % Inhibition” value came out at 103%.
As to `CN(C)C1(c2ccccc2)CCC2(CCN(C(=O)CC3CCCCN3S(=O)(=O)c3cccc(C(F)(F)F)c3)CC2)CC1` (stereo not drawn) [Compound 9, 1-(9-(Dimethylamino)-9-phenyl-3-azaspiro[5.5]undecan-3-yl)-2-(1-(3-(trifluoromethyl)phenylsulfonyl)piperidin-2-yl)ethan-1-one], the “μ-Opioid receptor [1 μM] % Inhibition” value was 103%.
As for `COc1cc(C)c(S(=O)(=O)N2CCCC[C@H]2COCC(=O)N2CCC3(CC2)CCC(c2ccccc2)(N2CC(F)(F)C2)CC3)c(C)c1` [Compound 13, 1-(9-(3,3-Difluoroazetidin-1-yl)-9-phenyl-3-azaspiro[5.5]undecan-3-yl)-2-(((S)-1-(4-methoxy-2,6-dimethylphenylsulfonyl)piperidin-2-yl)methoxy)ethanone], the “μ-Opioid receptor [1 μM] % Inhibition” value was 2%.
In the case of `COc1cc(C)c(S(=O)(=O)N2CCCC[C@H]2COCC(=O)N2CCC3(CC2)CCC(c2ccccc2)(N(C)C)CC3)c(C)c1` [Compound 2, 1-(9-(Dimethylamino)-9-phenyl-3-azaspiro[5.5]undecan-3-yl)-2-(((S)-1-(4-methoxy-2,6-dimethylphenylsulfonyl)piperidin-2-yl)methoxy)ethanone], the “μ-Opioid receptor [1 μM] % Inhibition” value is reported as 102%.
For `COc1cc(C)c(S(=O)(=O)N2CCCC[C@H]2COCC(=O)N2CCC3(CC2)CCC(c2ccccc2)(N2CCC2)CC3)c(C)c1` [Compound 12, 1-(9-(Azetidin-1-yl)-9-phenyl-3-azaspiro[5.5]undecan-3-yl)-2-(((S)-1-(4-methoxy-2,6-dimethylphenylsulfonyl)piperidin-2-yl)methoxy)ethanone], the “μ-Opioid receptor [1 μM] % Inhibition” value is recorded as 84%.
The same measure for `COc1cc(C)c(S(=O)(=O)N2CCCCC2COCC(=O)N2CCC3(CC2)CCC(c2ccccc2)(N2CCCC2)CC3)c(C)c1` (stereo not drawn) [Compound 1, 2-((1-(4-Methoxy-2,6-dimethylphenylsulfonyl)piperidin-2-yl)methoxy)-1-(9-phenyl-9-(pyrrolidin-1-yl)-3-azaspiro[5.5]undecan-3-yl)ethanone]: 85%.
For the molecule `COc1cc(C)c(S(=O)(=O)N2CCCCC2CCCC(=O)N2CCC3(CC2)CCC(c2cccs2)(N(C)C)CC3)c(C)c1` (stereo not drawn) [CC-16, 1-(3-Dimethylamino-3-thiophen-2-yl-9-azaspiro[5.5]undecan-9-yl)-4-[1-[(4-methoxy-2,6-dimethyl-phenyl)sulfonyl]-piperidin-2-yl]-butan-1-one], the “μ-Opioid receptor [1 μM] % Inhibition” value was determined as 95%.
For `CN(C)C1(c2cccs2)CCC2(CCN(C(=O)CC3CCCCN3S(=O)(=O)c3cccc(C(F)(F)F)c3)CC2)CC1` (stereo not drawn) [CC-10, 1-(3-Dimethylamino-3-thiophen-2-yl-9-azaspiro[5.5]undecan-9-yl)-2-[1-[[3-(trifluoromethyl)phenyl]sulfonyl]-piperidin-2-yl]-ethanone], the “μ-Opioid receptor [1 μM] % Inhibition” value is 102%.
To `Cc1cccc(Cl)c1S(=O)(=O)N1CCCCC1COCC(=O)N1CCC2(CC1)CCC(c1cccc(F)c1)(N1CCCC1)CC2` (stereo not drawn) [CC-05, 2-[[1-[(2-Chloro-6-methyl-phenyl)sulfonyl]-piperidin-2-yl]-methoxy]-1-[3-(3-fluorophenyl)-3-pyrrolidin-1-yl-9-azaspiro[5.5]undecan-9-yl]-ethanone] belongs 54%.
